From US20260364088A1, “TASL MIMICKING MOLECULES AND APPLICATIONS THEREOF” (CEMM - FORSCHUNGSZENTRUM FÜR MOLEKULARE MEDIZIN GMBH, priority 2022, published 2026)

Amino acid sequences for entries named in this document (tags omitted).
UniProt Q8N697, whole entry: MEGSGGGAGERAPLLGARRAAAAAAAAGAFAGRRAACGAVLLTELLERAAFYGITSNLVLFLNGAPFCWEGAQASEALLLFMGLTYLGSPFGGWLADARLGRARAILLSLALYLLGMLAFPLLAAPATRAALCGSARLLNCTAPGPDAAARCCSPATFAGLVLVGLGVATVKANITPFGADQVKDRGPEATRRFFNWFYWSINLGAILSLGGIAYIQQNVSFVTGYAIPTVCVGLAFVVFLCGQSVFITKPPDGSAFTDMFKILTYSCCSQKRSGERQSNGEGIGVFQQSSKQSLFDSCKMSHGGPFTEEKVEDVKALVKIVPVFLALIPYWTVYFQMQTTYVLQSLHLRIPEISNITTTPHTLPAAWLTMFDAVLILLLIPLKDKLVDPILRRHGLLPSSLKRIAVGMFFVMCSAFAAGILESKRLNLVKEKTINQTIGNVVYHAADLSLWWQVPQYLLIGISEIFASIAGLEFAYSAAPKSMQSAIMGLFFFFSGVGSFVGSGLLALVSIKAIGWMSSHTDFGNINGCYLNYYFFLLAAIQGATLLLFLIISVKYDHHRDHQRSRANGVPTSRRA

Target: THP1 dual cell (Homo sapiens, UniProt Q8N697)
Test: THP1 DUAL/ISRE cell reporter assay (R848 stimulated)
Description: CAL-1, THP1 or human primary cells were incubated with dTASL1 and other identified compounds (or the corresponding volume of DMSO vehicle) for 24 h or 48 h at the indicated concentration and subsequently stimulated with R848 (5 μg/ml) for the indicated time. Supernatant or cells were recovered for ELISA, SDS-PAGE or microscopy-based analysis.
THP1 DUAL cells (1×10^5 cells per 96 well) were incubated with compounds for 24 h or 48 h, and subsequently stimulated for 20 h as indicated. Cell culture supernatant were collected, cleared of residual cells by centrifugation and analyzed for NF-κB and ISRE reporter activity according to the manufacturer's instructions. For experiments in 384-well format, compounds were pre-plated at defined concentrations and THP1 dual cells were added at 800 k/well concentration in […]. After incubation for 24 h or 48 h cells were stimulated with […] of a 25 μg/ml stock of R848 or 0.5 μg/ml Pam3CKS4 5× stocks as indicated for 20 h and detected by directly adding Quanti-Luc Plus (Invivogen) solution to the plates, according to the manufacturer's instructions and without adding stabilizer solution. Quanti-Blue detection was carried out according to the manifacturers instructions, with QB reagent and buffer (Invivogen) dissolved in 30 ml water, instead of the 100 ml used for standard detection. […]

IC50 (read-out: IC50 24 h, 24 h treatment before R848 stimulation): 8.9 µM
IC50 (read-out: IC50 48 h, 48 h treatment before R848 stimulation): 2.8 µM
SMILES: CCOc1ccc(-c2cc(C(=O)NCCCN3CCC(C)CC3)c3ccccc3n2)cc1

Like-named read-outs stand apart in the source and are kept apart here.
